Values of other authors as cited in publication PMC10610311, “Eugenol: In Vitro and In Ovo Assessment to Explore Cytotoxic Effects on Osteosarcoma and Oropharyngeal Cancer Cells” (Plants, 2023).

How the values were obtained:
keratinocytes (HaCaT) = settings: non-tumor cells HaCaT, methotrexate more pronounced; cited from earlier work
Detroit-562 cells = tested on: Detroit-562 cells; design: method as in PMID 25559287; settings: Detroit-562, effectiveness not as great as afatinib; cited from earlier work

## cetuximab: conventional antitumor therapy approved by the FDA
Keratinocytes (HaCaT)
  cell viability (in words): reduced cell viability in a dose-dependent manner
Detroit-562 cells
  cell viability (in words): decreased cell viability
